Tested on: human beta cells
Assay: Ki67 immunolabeling in human islets with adenoviral silencing or overexpression plus drug
Assay type: cell-based
Details: Ad.shDYRK1A plus TGFβ inhibitor
Method: The immunoblots are representative of separate experiments in human islets from three different donors. […] Ad.shLacZ indicates a sh-adenovirus for the Ad.shDYRK1A.
Unless otherwise described, all transductions were performed using 150 moi for one hour, and studies performed 72 hours later. […] Adenoviruses encoding human SMAD6 or SMAD7 were prepared as described using cDNAs encoding SMAD6 and SMAD7 obtained from Harvard PlasmID Database.
Primary antisera were: BrdU (ab6326, Abcam), Ki67 (RM-9106-sl, Thermo Scientific, and MIB1, DAKO), p-Histone-3 (06-570, Millipore), insulin (A0564, DAKO), p-yH2AX (MA1-2022, Thermo Scientific), NKX6.1 (F55A10-c, University of Iowa), PDX1 (07-696, Millipore), MAFA (Ab26405, Abcam), Glucagon (2760s, Cell Signaling), Somatostatin (Sc-20999, Santa Cruz), Pancreatic Polypeptide (A0619, DAKO), and CK19 (Ab52625, Abcam). Species-specific mouse Alexa Fluor 488 (A-11029, Life Technologies), rat Alexa Fluor 594 (A-11007, Life Technologies), rabbit Alexa Fluor 488 (A11037, Life Technologies) or guinea pig Alexa Fluor 488 (A-11073, Life Technologies) secondary antisera were selected as appropriate.

c1ccc(-c2n[nH]cc2-c2ccnc3ccccc23)nc1 [LY364947, 4-[3-(2-Pyridinyl)-1H-pyrazol-4-yl]-quinoline]
proliferation with adenoviral silencing of DYRK1A: markedly accentuates proliferation
